Data published in PMC5063977 (The Journal of Biological Chemistry, 2016).

Chains of the proteins cited; added tags and fusions are not shown. Residues count along the entry.
UniProt O60896, 24-148: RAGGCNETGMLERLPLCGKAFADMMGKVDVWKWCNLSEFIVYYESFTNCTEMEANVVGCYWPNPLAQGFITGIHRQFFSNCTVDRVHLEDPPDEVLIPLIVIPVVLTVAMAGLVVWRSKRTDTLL
UniProt Q16602, 23-461: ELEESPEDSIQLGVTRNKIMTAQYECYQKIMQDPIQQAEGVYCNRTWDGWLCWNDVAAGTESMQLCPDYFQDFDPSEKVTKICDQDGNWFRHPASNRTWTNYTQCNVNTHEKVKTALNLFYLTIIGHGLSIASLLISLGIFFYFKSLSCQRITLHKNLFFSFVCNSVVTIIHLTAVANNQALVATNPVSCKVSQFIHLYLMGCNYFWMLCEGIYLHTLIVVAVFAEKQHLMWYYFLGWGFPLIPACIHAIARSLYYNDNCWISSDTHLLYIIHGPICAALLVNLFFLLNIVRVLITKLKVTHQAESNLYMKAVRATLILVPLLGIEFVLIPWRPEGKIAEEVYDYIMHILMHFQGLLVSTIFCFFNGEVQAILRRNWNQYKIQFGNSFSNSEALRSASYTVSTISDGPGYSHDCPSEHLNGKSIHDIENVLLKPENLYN

Experiments:
[1] = target: T1, RAMP3-CLR (AM2 receptor) (Homo sapiens, UniProt O60896+Q16602); assay: S. cerevisiae growth assay, GPA1/Gαi chimera, RAMP3 + CLR; type: cell-based
T1 construct: FLAG; expressed in transfected cells; host or cells: HEK-293 or HEK-293S cells, transient transfection, 1:1 RAMP:CLR
Description: FIGURE 3. […] Reporter gene activity was determined following 20 h of stimulation.
General yeast procedures were performed as described previously ([22], [24]). The human CLR was introduced into yeast cells under the control of the PGK promoter using a plasmid containing ura3 (pDT-PGK). The three human RAMPs were introduced into yeast under the control of the GAPDH promoter using plasmids containing leu2 (p425-GPD) ([25]). S. cerevisiae dual reporter strains expressing chimeras of yeast GPA1(1–467) (GPA1/Gα) with the five C-terminal amino acids of […] human G proteins representing Gαs, Gα16, Gαq, Gαo, Gαi1/2, Gαi3, Gαz, Gα12, Gα13, and Gα14 (MMY84–MMY93) were used in this study ([52]). […] Receptor signaling was measured using the yeast growth assay as described previously ([24]). […] A fluorescein signal was detected as an increase in fluorescence (excitation wavelength = 485 nm, emission wavelength = 535 nm) as a measure of growth. Different concentrations of ligand (0.01 nM–100 μM) were assayed using 96-well plates, and fluorescence was detected using a Tecan Infinite M200 microplate reader (Tecan Ultra Evolution, Reading, UK) or a Mithras LB 940 microplate reader (Berthold Technologies, Harpenden, UK) for 20 h. […]

[2] = target: T1, RAMP3-CLR (AM2 receptor); assay: (Ca^2+)i mobilization, HEK-293S cells, RAMP3 + CLR; type: cell-based
Description: HEK-293 cells, provided by Dr. Jügen Müller (University of Aston), were cultured in DMEM supplemented with 10% heat-inactivated FBS and kept at 37 °C in a humidified 95% air, 5% CO2 incubator. HEK-293S cells (a gift from AstraZeneca) were cultured in DMEM supplemented with 8% heat-inactivated FBS and kept at 37 °C in a humidified 95% air, 5% CO2 incubator. HEK-293 cells were transfected with FuGENE 6 (Roche Applied Science) in accordance with the manufacturer's instructions using a 1:3 (w:v) DNA:FuGENE ratio and a 1:1 ratio of RAMP to CLR. HEK-293S cells were seeded into 96-well poly-D-lysine-coated plates at a density of 15,000 cells/well (determined using a Countess^TM cell counter, Invitrogen) 1 day prior to transfection. HEK-293S cells were transiently transfected as described previously ([38]) using a 1:1 ratio of RAMP to CLR. The transfected cell lines were grown for 24–48 h prior to assaying.
Transfected HEK-293 cells were grown to confluence in black, clear bottomed, 96-well plates. […] Ligands were added robotically using a Mithras LB 940 multimode microplate reader in the range of 10 pM to 1 μM, and fluorescence was determined immediately post-injection with an excitation wavelength set to 485 nm and an emission wavelength set to 535 nm. […] Peak magnitude was calculated using five-point smoothing followed by correction against background fluorescence. […]

CSCC[C@H](NC(=O)[C@H](CC(C)C)NC(=O)[C@H](CCC(N)=O)NC(=O)[C@H](Cc1c[nH]c2ccccc12)NC(=O)[C@H](CC(C)C)NC(=O)[C@H](CCCNC(=N)N)NC(=O)[C@H](Cc1c[nH]cn1)NC(=O)[C@H](CO)NC(=O)[C@H](CC(C)C)NC(=O)[C@H](CC(N)=O)NC(=O)[C@H](CCC(N)=O)NC(=O)[C@@H](NC(=O)[C@H](CCC(N)=O)NC(=O)[C@@H]1CSSC[C@H](NC(=O)CNC(=O)[C@@H](NC(=O)[C@H](CCCNC(=N)N)NC(=O)[C@H](CC(C)C)NC(=O)[C@H](CC(C)C)NC(=O)[C@H](CCC(N)=O)NC(=O)[C@H](C)NC(=O)[C@H](CCC(N)=O)NC(=O)[C@@H](N)[C@@H](C)O)C(C)C)C(=O)N[C@@H](C(C)C)C(=O)N[C@@H](CC(C)C)C(=O)NCC(=O)N[C@@H]([C@@H](C)O)C(=O)N1)C(C)C)C(=O)NCC(=O)N1CCC[C@H]1C(=O)N[C@@H](C)C(=O)NCC(=O)N[C@@H](CCCNC(=N)N)C(=O)N[C@@H](CCC(N)=O)C(=O)N[C@@H](CC(=O)O)C(=O)N[C@@H](CO)C(=O)N[C@@H](C)C(=O)N1CCC[C@H]1C(=O)N[C@H](C(=O)N[C@@H](CC(=O)O)C(=O)N1CCC[C@H]1C(=O)N[C@@H](CO)C(=O)N[C@@H](CO)C(=O)N1CCC[C@H]1C(=O)N[C@@H](Cc1c[nH]cn1)C(=O)N[C@@H](CO)C(=O)N[C@@H](Cc1ccc(O)cc1)C(N)=O)C(C)C [AM2, adrenomedullin 2]
EC50 [1]: 3.24 nM
Kd [1]: 5.01 nM
EC50 [2]: 36.3 nM
Kd [2]: 44.7 nM
